Measurements taken from publication PMC8062000, “High-throughput screening of the ReFRAME, Pandemic Box, and COVID Box drug repurposing libraries against SARS-CoV-2 nsp15 endoribonuclease to identify small-molecule inhibitors of viral activity” (PLoS ONE, 2021).

Target: SARS-CoV-2 nsp15 endoribonuclease (endoU) (Severe acute respiratory syndrome coronavirus 2, UniProt P0DTD1)
Test: biochemical
Conditions: read-out: 1° FRET Assay % inhibition

Question: With `COc1cccc2c1C(=O)c1c(O)c3c(c(O)c1C2=O)C[C@@](O)(C(=O)CO)C[C@@H]3O[C@H]1C[C@H](N)[C@H](O)[C@H](C)O1` [Doxorubicin] as the compound, how does the inhibition at 10 µM read?
Answer: 57%
